The target in the assay is T1, K^+ -depolarized guinea pig ileum or taenia (Cavia porcellus).
T1 construct: pieces of ileum, 2 cm in length, from male guinea pigs (200-400 g) were set up in isolated organ baths; from tissue; host or cells: strips of taenia from the caecum or pieces of ileum of male guinea pigs
Put plainly: Antagonism of Ca^++ -induced contractions of K^+ -depolarized guinea pig taenia or ileum. Type of assay: cell-based. To be noted: Table 1, Ca^++ -induced contraction, Arunlakshana & Schild. As to the method: Strips of taenia from the caecum or pieces of ileum, 2 cm in length, from male guinea pigs (200-400 g) were set up in isolated organ baths in Ca^++ -free K^+ Tyrode's solution (mM NaCl 137, KCl 40, NaH2 PO4 0.4, NaHCO3 11.9, glucose 5.5) and gassed with 95% O2, 5% CO2 at 37° C. Contractions were measured with isotonic transducers with a 1 g load. Cumulative dose-response curves were obtained. Tissues were then washed and incubated with the compounds for 20-25 minutes and then Ca^++ concentration response curves re-established. […] Dose ratios were determined graphically at ED50 values from the Ca^++ dose-response curve and Schild plots were constructed to determine pA2 value using inverse regression line analysis. Alternatively, when only one concentration of an antagonist was used, pA2 values were calculated according to the method of J. M. Van Rossum, Arch. Int. Pharmacodyn Ther. 143: 299-330 (1963).

A word on the pA2: it is the negative logarithm of the molar antagonist concentration that doubles the agonist concentration needed for the same response.

`COc1ccc([C@@H]2Sc3ccccc3N(CCN(C)C)C(=O)[C@@H]2OC(C)=O)cc1` [Test Compound 17, (1)-cis-5-2-(dimethylamino)etnyl]2,3-dihydro-3-hydroxy-2-(p-methoxyphenyl)-1,5-benzothiazepin-4(5H)-one acetate, reference compound] returned a pA2 of 7.38.

(Values after US5198433A, “Lactamimides as calcium antagonists” (Merrell Dow Pharmaceuticals Inc., priority 1992, dated 1993).)
